Test results: patent publication US10370388B2, “Heterocyclic compounds and methods of their use” (NOVARTIS AG, priority 2012, dated 2019)

The chains behind the UniProt entries cited, without tags or fusion partners.
UniProt P50052, whole entry: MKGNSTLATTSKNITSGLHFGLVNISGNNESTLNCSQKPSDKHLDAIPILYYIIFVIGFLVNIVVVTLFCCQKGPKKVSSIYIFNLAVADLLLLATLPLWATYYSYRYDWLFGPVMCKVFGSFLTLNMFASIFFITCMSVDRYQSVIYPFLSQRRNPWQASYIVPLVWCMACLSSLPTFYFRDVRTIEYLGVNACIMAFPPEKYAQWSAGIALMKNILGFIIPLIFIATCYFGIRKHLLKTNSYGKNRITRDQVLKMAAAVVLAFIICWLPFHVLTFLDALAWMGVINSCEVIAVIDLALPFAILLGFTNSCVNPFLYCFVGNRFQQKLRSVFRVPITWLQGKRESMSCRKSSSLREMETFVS

Target: AT2 receptor (Homo sapiens (Human), UniProt P50052)
Test: AT2 receptor binding assay ([125I]-CGP42112A, HEK293/AT2 receptor cell membranes)
Details: displacement of [125I]-CGP42112A

O=C(O)[C@@H]1C[C@H](N2CCCC(c3ccccc3)C2)CN1C(=O)C(c1ccccc1)c1ccccc1 (stereo partly shown) gave an IC50 of 67.3 nM.
